The list shows a part of the results, in another mix than the full data. Some of these compounds have results that are not shown, active ones among them. Results filed as inconclusive are left out. Active and inactive are the calls of the source. Calls come from the whole dose curve; as a rule, active = well fitted cell-killing curve with a large enough effect; inconclusive = small, poorly fitted or top-dose-only effect, or effect the other way; inactive = flat fitted curve, though single readings scatter.
Assay: qHTS for induction of synthetic lethality in tumor cells producing 2HG: qHTS for the HT-1080-NT fibrosarcoma cell line;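 note: NT is the 2HG producing partner of a matched IDH1 knockdown line; 0% = DMSO-treated cells and -100% = media-only wells without cells; nearly all actives have a fitted effect of over 55% in size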
Details: HT-1080-NT fibrosarcoma viability, CellTiter-Glo ATP luminescence, 48 h; at 46.1 µM (top of the series)

Structure (SMILES) | activity, negative = less viability
O=C(OC1CN2CCC1CC2)C(CO)(c1ccccc1)c1ccccc1 (stereo unspecified) | inactive: -2.65%
CC(C)Oc1ccc(C(=O)NCC2(N(C)C)CCCCC2)cc1 | inactive: 10.7%
O=C(OCCN1CCCC1)C(O)(c1ccccc1)c1ccccc1 | inactive: 9.31%
CN(C)c1cccc(C(=O)NCC2(N(C)C)CCCCC2)c1 | inactive: -2.04%
C=C(C)C#CC(O)(C(=O)OC1CCN(C)CC1)c1ccccc1 (stereo unspecified) | inactive: -7.1%
COc1ccc(Br)c(C(=O)NCC2(N3CCCCC3)CCCCC2)c1 | inactive: -1.2%
COc1cc(C(=O)NCC2(N(C)C)CCCCC2)c([N+](=O)[O-])cc1OC | inactive: 6.05%
CN(C)C1(CNC(=O)c2ccc(Br)cc2)CCCCC1 | inactive: 0.814%
O=C(NCC1(N2CCCCC2)CCCCC1)c1cccc(Cl)c1 | inactive: -20.5%
COc1cccc(C(=O)NCC2(N3CCCCC3)CCCCC2)c1 | inactive: 10.3%
COc1ccc(Cl)cc1C(=O)NCC1(N(C)C)CCCCC1 | inactive: 17.9%
Cc1ccccc1C(=O)NCC1(N2CCCCC2)CCCCC1 | inactive: -3.26%
CN(C)c1ccc(C(=O)NCC2(N(C)C)CCCCC2)cc1 | inactive: -7.75%
CN(C)C1CCCC1OC(=O)C(O)(c1ccccc1)c1ccccc1 (stereo unspecified) | inactive: 10.5%
COc1ccc(C(=O)NCC2(N(C)C)CCCCC2)cc1 | inactive: 6.3%
CCN1CCCC(OC(=O)C2(O)c3ccccc3C=Cc3ccccc32)C1 (stereo unspecified) | inactive: -13.4%
Cc1cc(C(=O)NCC2(N3CCCCC3)CCCCC2)ccc1[N+](=O)[O-] | inactive: 9.11%
O=C(NCC1(N2CCCCC2)CCCCC1)c1cccc(Br)c1 | inactive: -25.6%
C=CCN1CCN(CCOC(=O)C(O)(c2ccccc2)c2ccccc2)CC1 | inactive: 0.348%
O=C(NCC1(N2CCCCC2)CCCCC1)c1cc(F)c(F)cc1Cl | inactive: -0.967%
CN1[C@@H]2CC[C@H]1CC(OC(=O)C(O)(c1ccccc1)c1ccccc1)C2 (stereo partly specified) | inactive: -4.95%
O=C(NCC1(N2CCCCC2)CCCCC1)c1cc([N+](=O)[O-])ccc1Cl | inactive: -0.218%
Cc1ccc(C(=O)NCC2(N3CCCCC3)CCCCC2)cc1 | inactive: -6.17%
CCN(CC)CC(C)C(C)OC(=O)C(O)(c1ccccc1)c1ccccc1 (stereo unspecified) | inactive: -26.6%
COc1cc(SC)ccc1C(=O)NCC1(N(C)C)CCCCC1 | inactive: 9.11%
CC(C)N1C(=O)CC2(CCN(CCOC(=O)C(O)(c3ccccc3)c3ccccc3)CC2)C1=O | inactive: 4.42%

Reference: PubChem BioAssay AID686970 (National Center for Advancing Translational Sciences (NCATS), 2013)
